# Measured values taken from US11807873B2, “Conversion of S-lignin compounds to useful intermediates” (Alliance for Sustainable Energy, LLC, priority 2020, dated 2023).
# Protein sequences, listed by entry. Tags and fused reporters are not part of them.
# UniProt Q88GI6, entry or part of it: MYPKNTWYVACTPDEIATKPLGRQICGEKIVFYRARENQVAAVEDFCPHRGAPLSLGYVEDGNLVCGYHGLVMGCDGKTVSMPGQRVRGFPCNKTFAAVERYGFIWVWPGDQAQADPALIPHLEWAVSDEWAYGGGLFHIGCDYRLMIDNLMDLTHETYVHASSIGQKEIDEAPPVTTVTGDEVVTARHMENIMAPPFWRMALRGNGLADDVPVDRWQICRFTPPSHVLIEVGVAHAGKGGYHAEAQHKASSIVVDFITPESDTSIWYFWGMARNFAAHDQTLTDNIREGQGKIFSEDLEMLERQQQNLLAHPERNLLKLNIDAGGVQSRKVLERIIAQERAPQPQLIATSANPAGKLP
# Biological target: VanAB (vanillate O-demethylase) (Pseudomonas putida, UniProt Q88GI6)
# Experiment: VanAB steady-state kinetics, O2 consumption (oxygraph)
# Details: 2 μM Ht-VanB, 400 μM NADH, air-saturated HEPES (I = 0.1M), pH 7.5, 25° C; VanA 0.4 μM for vanillate, 1 μM for syringate and 3MGA
smiles,measurement,value
"COc1cc(C(=O)O)ccc1O [VA, vanillate]",kcat^app,0.77 ± 0.02 s⁻¹
